# Test results published in ChEMBL document CHEMBL1122429, “In vitro and in vivo protection of acetylcholinesterase against organophosphate poisoning by pretreatment with a novel derivative of 1,3,2-dioxaphosphorinane 2-oxide” (1983).
# By UniProt entry, the sequences of proteins in these tests, tags left out. Residues count along the entry.
# UniProt O42275, 24-633 limits assumed: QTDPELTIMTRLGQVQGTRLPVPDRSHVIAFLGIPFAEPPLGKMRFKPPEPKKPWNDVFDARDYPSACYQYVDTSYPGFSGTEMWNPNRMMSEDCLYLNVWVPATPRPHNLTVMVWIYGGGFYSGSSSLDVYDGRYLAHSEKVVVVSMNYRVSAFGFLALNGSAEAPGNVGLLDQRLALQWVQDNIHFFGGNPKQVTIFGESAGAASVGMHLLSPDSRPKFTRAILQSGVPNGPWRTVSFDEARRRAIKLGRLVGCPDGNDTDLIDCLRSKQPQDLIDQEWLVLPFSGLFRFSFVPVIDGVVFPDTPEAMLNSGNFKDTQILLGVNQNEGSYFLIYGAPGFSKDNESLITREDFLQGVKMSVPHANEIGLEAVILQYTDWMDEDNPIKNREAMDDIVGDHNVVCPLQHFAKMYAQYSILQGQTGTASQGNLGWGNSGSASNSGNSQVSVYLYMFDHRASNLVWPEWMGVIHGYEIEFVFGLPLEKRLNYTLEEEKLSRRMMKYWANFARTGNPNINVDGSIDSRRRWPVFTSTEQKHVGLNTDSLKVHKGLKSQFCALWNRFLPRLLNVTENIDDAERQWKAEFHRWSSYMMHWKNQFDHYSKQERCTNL
# UniProt P37136, 32-614 limits assumed: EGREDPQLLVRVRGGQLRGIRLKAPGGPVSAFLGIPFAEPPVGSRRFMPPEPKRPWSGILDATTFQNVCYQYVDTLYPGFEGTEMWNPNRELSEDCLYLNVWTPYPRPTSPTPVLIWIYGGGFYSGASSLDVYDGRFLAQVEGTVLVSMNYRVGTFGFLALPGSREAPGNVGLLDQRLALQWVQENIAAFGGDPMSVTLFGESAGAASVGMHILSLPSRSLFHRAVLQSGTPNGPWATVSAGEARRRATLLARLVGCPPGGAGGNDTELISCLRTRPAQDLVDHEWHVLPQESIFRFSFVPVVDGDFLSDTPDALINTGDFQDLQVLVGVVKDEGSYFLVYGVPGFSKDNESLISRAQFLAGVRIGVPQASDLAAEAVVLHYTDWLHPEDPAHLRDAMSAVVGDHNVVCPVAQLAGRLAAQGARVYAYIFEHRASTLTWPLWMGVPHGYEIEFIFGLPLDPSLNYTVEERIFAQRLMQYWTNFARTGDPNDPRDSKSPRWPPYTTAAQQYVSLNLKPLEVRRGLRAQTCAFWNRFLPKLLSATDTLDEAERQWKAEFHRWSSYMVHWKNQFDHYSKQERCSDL
# UniProt P81908, whole entry, entry inferred from the test as described: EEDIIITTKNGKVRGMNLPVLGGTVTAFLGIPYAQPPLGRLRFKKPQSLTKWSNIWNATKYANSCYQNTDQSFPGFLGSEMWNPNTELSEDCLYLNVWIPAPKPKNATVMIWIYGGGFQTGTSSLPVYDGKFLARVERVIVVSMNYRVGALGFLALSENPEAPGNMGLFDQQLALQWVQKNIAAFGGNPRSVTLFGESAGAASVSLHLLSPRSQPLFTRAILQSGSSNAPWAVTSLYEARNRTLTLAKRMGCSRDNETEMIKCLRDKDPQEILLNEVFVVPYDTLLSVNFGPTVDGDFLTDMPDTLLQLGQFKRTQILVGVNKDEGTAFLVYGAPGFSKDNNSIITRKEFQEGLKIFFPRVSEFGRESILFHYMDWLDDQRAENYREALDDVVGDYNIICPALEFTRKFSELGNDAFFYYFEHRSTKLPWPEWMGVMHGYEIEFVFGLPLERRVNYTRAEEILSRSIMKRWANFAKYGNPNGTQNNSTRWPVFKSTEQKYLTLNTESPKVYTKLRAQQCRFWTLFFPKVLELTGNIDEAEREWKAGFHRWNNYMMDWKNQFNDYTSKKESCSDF
# UniProt Q03311, 30-603 limits assumed, entry inferred from the test as described: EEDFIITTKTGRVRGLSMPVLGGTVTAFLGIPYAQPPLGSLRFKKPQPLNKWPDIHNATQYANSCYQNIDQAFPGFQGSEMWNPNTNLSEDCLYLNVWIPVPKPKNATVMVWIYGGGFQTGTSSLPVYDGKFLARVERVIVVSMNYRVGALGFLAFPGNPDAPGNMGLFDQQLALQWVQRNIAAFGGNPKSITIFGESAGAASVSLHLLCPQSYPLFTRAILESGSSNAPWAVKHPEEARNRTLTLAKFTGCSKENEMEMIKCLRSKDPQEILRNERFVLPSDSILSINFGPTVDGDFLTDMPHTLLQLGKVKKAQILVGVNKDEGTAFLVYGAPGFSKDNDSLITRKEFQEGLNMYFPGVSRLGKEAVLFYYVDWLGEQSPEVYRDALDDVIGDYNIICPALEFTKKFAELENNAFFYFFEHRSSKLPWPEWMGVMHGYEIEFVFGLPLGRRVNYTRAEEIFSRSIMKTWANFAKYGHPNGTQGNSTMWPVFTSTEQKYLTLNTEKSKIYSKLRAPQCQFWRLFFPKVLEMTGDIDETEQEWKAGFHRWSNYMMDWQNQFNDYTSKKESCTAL
# What was measured:
# [1] = Protective ratio of compound (10 mg/kg) against soman poisoning, given subcutaneously to mice 30 min prior to treatment by TAB
# Unchecked [2] = target: Unchecked (UniProt O42275); test: Ratio of pseudo first order rate constant to that of inhibitory constant of compound in inhibition of eel acetylcholinesterase
# Unchecked [3] = target: Unchecked (UniProt P37136); test: Ratio of pseudo first order rate constant to that of inhibitory constant of compound in inhibition of rat brain acetylcholinesterase
# Unchecked [4] = target: Unchecked (UniProt P81908); test: Ratio of pseudo first order rate constant to that of inhibitory constant of compound in inhibition of horse serum butyrylcholinesterase
# Unchecked [5] = target: Unchecked (UniProt Q03311); test: Ratio of pseudo first order rate constant to that of inhibitory constant of compound in inhibition of mouse serum butyrylcholinesterase
# Acetylcholinesterase [6] = target: Acetylcholinesterase (Electrophorus electricus, UniProt O42275); test: Inhibitory constant against eel acetylcholinesterase at pH 7.0
# Acetylcholinesterase [7] = target: Acetylcholinesterase (Rattus norvegicus, UniProt P37136); test: Inhibitory constant against rat brain acetylcholinesterase at pH 7.0
smiles,measurement,setting,value
C[N+](C)(C)c1cccc(O)c1.[I-],Protective ratio,[1],< 2
C[N+](C)(C)c1cccc(OP2(=O)OCCCO2)c1.[I-],Ki,Unchecked [2],140 M⁻¹ s⁻¹
same,Ki,Unchecked [3],107 M⁻¹ s⁻¹
same,Ki,Unchecked [4],300 M⁻¹ s⁻¹
same,Ki,Unchecked [5],122 M⁻¹ s⁻¹
CN(C)C(=O)Oc1ccc[n+](C)c1.[Br-],Protective ratio,[1],3.1
C[N+](C)(C)c1cccc(OP2(=O)OCCCO2)c1,Ki,Acetylcholinesterase [6],13 µM
same,Ki,Acetylcholinesterase [7],31 µM
